The text below walks through data of US8419820B2, “Fast dissolving water-soluble fertilizer formulations and methods and uses thereof” (Everris International B.V., priority 2009, dated 2013).

A short description of the data set: pH of a 1% solution of fertilizer components in water. It is filed as physicochemical. As to conditions: 1% solution in water at room temperature.

As for Calcium Ammonium Nitrate, the pH came out at 6.
